Experiments:
[1] = Rat hindlimb model: blood pressure and heart rate; type: in vivo; details: mean ± SE
Description: An initial surgery is done to create hindlimb ischemia and implant osmotic pumps essentially as previously described with minor alterations. Briefly, adult male Sprague-Dawley rats (wt 340-390 grams) are first placed in an induction chamber with an O2 flow rate of 1 L/min and Isoflurane (ISO) at 2.5%, body temperature is maintained via a heating pad under the chamber. Following induction, animals are transferred to a surgical mat and anesthesia is continued via a non-rebreathing circuit. A warming lamp is positioned above the rat and a rectal probe is placed to monitor the animal's body temperature. The groin areas bilaterally are clipped and prepared with alternating Betadine and alcohol scrubs (3×) and a sterile drape is placed over the rat. The left femoral artery is exposed through a skin incision and subsequently ligated in two positions 1 cm apart; distal to the inguinal ligament and proximal to the femoral circumflex artery. The skin is closed using either skin staples or Vetbond. The same procedure is repeated on the right side. […] Stretched PESO catheters coated with PPG (Poly propylene glycol Aldrich # 20-235-5) are attached using sterile technique and in accordance with manufacture's instructions the afternoon prior to surgery. For pump placement, an incision is made to expose the right jugular vein, an area is tunneled SubQ from the right side of the neck to the back and the pump is placed in the resulting SubQ pocket. The vessel is ligated with 4-0 silk, a cut is made in the vessel just distal to the tie and the catheter from the osmotic pump is threaded down stream (approx 2 cm) and secured with a second tie. The skin is closed in the same manner as above.
Two weeks after the ligation surgery the rat underwent a second acute surgery to place indwelling catheters for microsphere measurements. Rats are anesthetized as described above. The animal is clipped, prepped, and EMLA cream is applied to each entry site. First an incision is made longitudinally at the ventral base of the tail using a 10 blade. A tapered PE 50 catheter is inserted approximately 3 cm into the ventral tail artery and anchored into place. The end of the catheter is then wrapped around the tail and tunneled SubQ over the back, exiting between the shoulder blades. Following tail artery cannulation, a midline neck incision is made to expose the left carotid artery for occlusive cannulation. A tapered PE 50 catheter is placed 3 cm into the carotid and the distal end is tunneled SubQ, exiting between the shoulder blades. The neck is closed with either skin stables or Vetbond and EMLA cream is applied. The exit site is closed around the catheters with a purse string suture stitch. The ends of the catheters are cauterized shut and the rat is allowed to recover from anesthesia for at least 4 hours.
For blood flow measurements, rats are placed onto the treadmill and the catheters are connected to extension tubing via 22 gage male-male connectors. For microsphere withdrawals and blood pressure measurements, the tail artery catheter is connected to a syringe (coated with tween and heparin-), which is “T” Ed to a withdrawal pump and a pressure transducer. The carotid catheter is used for injecting the microspheres. The rat began running at speed 20 m/min and an elevation of 7°. One minute into the run the pump is turned on at a rate of 0.5 ml/min, ten seconds later 0.5 ml (1×10^6 spheres/mL) of florescent microspheres are infused into the carotid line followed by a 0.5 ml flush over 30 seconds. The pump is set to stop at 90 seconds. The tmill is stopped, the extension lines are replaced and the animal's lines are flushed, and the animal allowed to rest. The syringe and lines are removed from the pump and the reference blood sample is place in a labeled tube for processing. […]

[2] = Rat hindlimb model: body weight; type: in vivo; details: mean ± SE, in g (unit assumed)

With VEGF the “Blood Pressure Pre-Exercise” value ([1]; VEGF 15 μg/kg/d osmotic pump, two weeks after ligation) was 146 ± 2.5, the “Blood Pressure Exercise” value ([1]; VEGF 15 μg/kg/d) was 156 ± 2.3 and the “Blood Pressure Post-Exercise” value ([1]; VEGF 15 μg/kg/d) was 149 ± 2.8. For the same substance, the “Heart Rate Exercise” value ([1]; VEGF 15 μg/kg/d) was 489 ± 10.0, the “Heart Rate Post-Exercise” value ([1]; VEGF 15 μg/kg/d) was 476 ± 18.1 and the “Heart Rate Pre-Exercise” value ([1]; VEGF 15 μg/kg/d) was 452 ± 29.5. For the same substance, the “Initial Body Wt” value ([2]; VEGF 15 μg/kg/d group, initial) was 372 ± 3.6 and the “Ending Body Wt” value ([2]; VEGF 15 μg/kg/d) was 421 ± 5.5.

From patent US8258311B2, “Human protein tyrosine phosphatase inhibitors and methods of use” (Aerpio Therapeutics Inc., priority 2006, dated 2012)
